Source: patent US12070443B2, “Methods of treating and preventing breast cancer with S-equol” (The Board of Regents of the University of Texas System, priority 2018, dated 2024)

Sequences of proteins named here, by UniProt entry; tags and fusion partners are left off.
UniProt Q92731, whole entry: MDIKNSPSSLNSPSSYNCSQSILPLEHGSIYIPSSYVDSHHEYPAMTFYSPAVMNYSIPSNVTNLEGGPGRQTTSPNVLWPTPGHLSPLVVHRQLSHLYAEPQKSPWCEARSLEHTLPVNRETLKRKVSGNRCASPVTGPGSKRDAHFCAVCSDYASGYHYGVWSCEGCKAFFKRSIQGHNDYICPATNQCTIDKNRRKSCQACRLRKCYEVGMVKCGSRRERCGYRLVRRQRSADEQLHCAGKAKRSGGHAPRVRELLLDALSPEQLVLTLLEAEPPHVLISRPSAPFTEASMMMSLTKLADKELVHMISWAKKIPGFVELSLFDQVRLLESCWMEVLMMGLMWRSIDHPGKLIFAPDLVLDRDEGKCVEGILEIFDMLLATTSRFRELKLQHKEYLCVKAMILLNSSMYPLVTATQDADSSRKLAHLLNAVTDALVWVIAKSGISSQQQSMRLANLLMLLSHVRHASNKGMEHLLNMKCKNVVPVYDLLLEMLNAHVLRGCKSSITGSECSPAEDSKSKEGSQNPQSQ

Target: T1, ERβ pY36 (Homo sapiens, UniProt Q92731)
T1 construct: MDA-MB-231, a human TNBC breast cancer cell line; endogenous in cells; host or cells: MDA-MB-231 (human TNBC line; also as xenograft tumours in athymic nude mice)
Experiment: pY36-specific phosphorylation signal in MDA-MB-231 cells
Format: cell-based
Details: MDA-MB-231 cells (FIG. 18A)

## C[C@]12CC[C@@H]3c4ccc(O)cc4CC[C@H]3[C@@H]1CC[C@@H]2O [17-β-estradiol, reference compound]
  pY36-specific phosphorylation signal: enhanced
